Target: recombinant human Estrogen Receptor alpha ligand binding domain (ER alpha-LBD (GST)) (Homo sapiens (Human), UniProt P03372)
Assay: ERα Binding Assay (LanthaScreen TR-FRET competition)
Settings: single experiment or average of repeats

Sequences of proteins named here, by UniProt entry; tags and fusion partners are left off. Residues count along the entry.
UniProt P03372, 311-547: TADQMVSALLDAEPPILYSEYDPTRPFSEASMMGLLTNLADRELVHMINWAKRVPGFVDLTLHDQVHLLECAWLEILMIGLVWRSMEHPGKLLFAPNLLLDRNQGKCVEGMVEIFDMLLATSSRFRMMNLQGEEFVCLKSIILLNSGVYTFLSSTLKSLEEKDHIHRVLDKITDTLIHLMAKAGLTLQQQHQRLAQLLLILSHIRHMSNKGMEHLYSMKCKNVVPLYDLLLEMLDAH

## C[C@H](CF)CN1[C@H](c2ccc(/C=C/C(=O)O)cc2)c2[nH]c3ccccc3c2C[C@H]1C [Example 4, (E)-3-(4-((1R,3R)-2-((S)-3-fluoro-2-methylpropyl)-3-methyl-2,3,4,9-tetrahydro-1H-pyrido[3,4-b]indol-1-yl)phenyl)acrylic acid]
  IC50: 1.6 nM

— patent US10130617B2, “Chemical compounds” (AstraZeneca AB, priority 2013, dated 2018)
